# Antibody variant affinities, Ab-14 light chain, assay B

Target: peptide PDVDLGDISGINAS, taken from heptad repeat 2 (HR2) of SARS-CoV-2 spike.

Parent: Ab-14, a human scFv built as VH, three GGGGS repeats, VL. Only the CDRs of the light chain vary.
VH: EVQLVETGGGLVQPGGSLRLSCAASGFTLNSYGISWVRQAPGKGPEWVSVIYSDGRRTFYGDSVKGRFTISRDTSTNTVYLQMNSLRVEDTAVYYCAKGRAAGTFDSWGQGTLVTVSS
VL: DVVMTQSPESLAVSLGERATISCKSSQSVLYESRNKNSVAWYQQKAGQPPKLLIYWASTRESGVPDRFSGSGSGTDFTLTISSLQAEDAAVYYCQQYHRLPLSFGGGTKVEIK

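The starting antibody came from a phage panning campaign against this peptide. Designed CDR sequences, proposed from the first random library and measured here. Their group label is 14L_GP_Gibbs (GP: Gaussian process model; Gibbs: Gibbs sampling; a sequence that several methods proposed may carry one label only). The scFvs were displayed on barcoded MATa yeast, the peptide on MATalpha yeast. The frequency of each diploid, read from paired DNA barcodes, reflects how well the two displayed proteins bind. Read counts were normalised to the haploid input and turned into Kd by a linear fit to BCL2-family pairs of known affinity, for each replicate. Mating was done six times.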

The whole VL of each variant is written out.
Values are log10 of the apparent Kd in nM; lower means stronger binding.
Replicates are averaged; those with no signal do not enter the mean.
The authors averaged sequences with at least three values out of six and counted those with two or fewer as poor binders.
Nonspecific signal, from three strains lacking the peptide, appeared in 4% of pairings of all light chain designs, centred on 2.64 (5% of these signals below 1.59); values are not corrected for it. Also given: how often the same scFv was detected with the empty control strains, with their mean in brackets.
A sequence measured in both rounds can read differently, since the two assays cover different ranges.
Of ten entries with the parent sequence, four were seen in most replicates (averages 0.34 to 2.37), three in one and three in none, so single entries are noisy.

VL	replicates, log10 nM	mean log10 Kd (nM)	signal with controls
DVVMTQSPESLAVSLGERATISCKLSFLQGGESRNKNSVAWYQQKAGQPPKLLIYDAGTRESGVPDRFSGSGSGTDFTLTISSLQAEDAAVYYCQQYHRLPLSFGGGTKVEIK	-0.27 -0.06 0.15 0.04 0.28 -0.01	0.02	0 of 18
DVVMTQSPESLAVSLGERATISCKLSMSWPMLSRNHNSVAWYQQKAGQPPKLLIYSASTRESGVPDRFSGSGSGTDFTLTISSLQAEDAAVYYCQQYHRLPLSFGGGTKVEIK	0.35 0.24 0.26 0.14 0.20 0.34	0.25	0 of 18
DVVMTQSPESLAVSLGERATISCKLSQSVLYQMEQKNSVAWYQQKAGQPPKLLIYQASTRMSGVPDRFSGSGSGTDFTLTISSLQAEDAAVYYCQQYHRLPLSFGGGTKVEIK	0.40 0.31 0.13 -0.04 0.14 0.31	0.21	1 of 18 (2.81)
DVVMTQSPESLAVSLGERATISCALSMSEWMESRNKNSVAWYQQKAGQPPKLLIYHANTREEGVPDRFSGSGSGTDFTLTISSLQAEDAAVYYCQQYHRLPLSFGGGTKVEIK	0.26 0.81 0.68 -0.01 0.27 0.77	0.46	0 of 18
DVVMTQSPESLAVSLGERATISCKWDQSVDGESRNKNSVAWYQQKAGQPPKLLIYQASQREWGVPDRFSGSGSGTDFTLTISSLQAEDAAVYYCQQYHRLPLSFGGGTKVEIK	0.41 0.32 0.25 0.52 0.55 0.41	0.41	0 of 18
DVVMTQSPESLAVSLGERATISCKVVQSVNGLQRAKNSVAWYQQKAGQPPKLLIYEASTRESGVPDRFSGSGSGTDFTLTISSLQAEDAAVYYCQQYHRLPLSFGGGTKVEIK	0.90 1.05 0.66 0.52 0.90 0.76	0.80	1 of 18 (1.65)
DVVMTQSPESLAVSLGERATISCKLDQSHLYESRNWNSVAWYQQKAGQPPKLLIYNASTREEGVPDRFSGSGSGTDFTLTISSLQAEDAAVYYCQQYHRLPLSFGGGTKVEIK	-0.37 -0.06 -0.41 -0.44 -0.68 0.03	-0.32	1 of 18 (1.60)
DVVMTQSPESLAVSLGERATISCKLQMSNLYESRMHNSVAWYQQKAGQPPKLLIYDASVRESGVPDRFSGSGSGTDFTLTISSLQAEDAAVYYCQQYHRLPLSFGGGTKVEIK	0.01 -0.12 -0.02 -0.04 -0.10 0.13	-0.02	2 of 18 (2.70)
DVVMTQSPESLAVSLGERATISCKLEWSQLYESRNSNSVAWYQQKAGQPPKLLIYNASTREEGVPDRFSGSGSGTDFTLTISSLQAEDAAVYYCQQYHRLPLSFGGGTKVEIK	0.33 0.19 0.12 0.05 0.36 0.36	0.24	1 of 18 (3.18)
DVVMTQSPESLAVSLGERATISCKLPQSDLYEGRNSNSVAWYQQKAGQPPKLLIYNASTRFDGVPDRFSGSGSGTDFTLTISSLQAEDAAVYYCQQYHRLPLSFGGGTKVEIK	-0.01 0.31 0.12 0.05 -0.14 0.36	0.11	0 of 18
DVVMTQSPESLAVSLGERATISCKLSQSTLYEQRNCNSVAWYQQKAGQPPKLLIYQASQRESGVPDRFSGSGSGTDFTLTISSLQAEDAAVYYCQQYHRLPLSFGGGTKVEIK	0.28 0.11 0.03 -0.10 -0.09 -0.23	0.00	0 of 18
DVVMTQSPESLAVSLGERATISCKVSQLNLYESRNANNVAWYQQKAGQPPKLLIYNASLREMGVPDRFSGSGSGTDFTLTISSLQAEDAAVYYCQQYHRLPLSFGGGTKVEIK	0.06 -0.17 -0.36 -0.41 -0.27 0.06	-0.18	2 of 18 (2.89)
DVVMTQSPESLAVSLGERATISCKESQSEPYESRNKNSVAWYQQKAGQPPKLLIYNASQRMSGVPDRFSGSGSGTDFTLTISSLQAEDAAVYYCQQYHRLPLSFGGGTKVEIK	0.22 0.10 -0.09 -0.14 0.00 0.06	0.02	2 of 18 (2.71)
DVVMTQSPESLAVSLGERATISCKLMQEWEYQSRMKNSVAWYQQKAGQPPKLLIYHASERLSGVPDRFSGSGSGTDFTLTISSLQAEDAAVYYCQQYHRLPLSFGGGTKVEIK	1.06 1.49 0.79 0.25 0.89 1.09	0.93	2 of 18 (2.25)

Top 2 of the variants detected in all replicates, tightest first:

VL	replicates, log10 nM	mean log10 Kd (nM)	signal with controls
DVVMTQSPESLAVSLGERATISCKLDQSHLYESRNWNSVAWYQQKAGQPPKLLIYNASTREEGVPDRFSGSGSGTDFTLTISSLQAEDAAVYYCQQYHRLPLSFGGGTKVEIK	-0.37 -0.06 -0.41 -0.44 -0.68 0.03	-0.32	1 of 18 (1.60)
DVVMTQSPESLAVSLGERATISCKVSQLNLYESRNANNVAWYQQKAGQPPKLLIYNASLREMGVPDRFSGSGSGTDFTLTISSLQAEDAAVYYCQQYHRLPLSFGGGTKVEIK	0.06 -0.17 -0.36 -0.41 -0.27 0.06	-0.18	2 of 18 (2.89)

From the AlphaSeq antibody data of Li et al. 2023 (doi:10.1038/s41467-023-39022-2), copy in the FLAb collection.